Assay results published in US10214515B2, “Substituted pyrazoles as inhibitors of fibroblast growth factor receptor” (Zhejiang Hisun Pharmaceutical Co., Ltd., priority 2015, dated 2019).

By UniProt entry, the sequences of proteins in these tests, tags left out. Residues count along the entry.
UniProt P11362, 22-822: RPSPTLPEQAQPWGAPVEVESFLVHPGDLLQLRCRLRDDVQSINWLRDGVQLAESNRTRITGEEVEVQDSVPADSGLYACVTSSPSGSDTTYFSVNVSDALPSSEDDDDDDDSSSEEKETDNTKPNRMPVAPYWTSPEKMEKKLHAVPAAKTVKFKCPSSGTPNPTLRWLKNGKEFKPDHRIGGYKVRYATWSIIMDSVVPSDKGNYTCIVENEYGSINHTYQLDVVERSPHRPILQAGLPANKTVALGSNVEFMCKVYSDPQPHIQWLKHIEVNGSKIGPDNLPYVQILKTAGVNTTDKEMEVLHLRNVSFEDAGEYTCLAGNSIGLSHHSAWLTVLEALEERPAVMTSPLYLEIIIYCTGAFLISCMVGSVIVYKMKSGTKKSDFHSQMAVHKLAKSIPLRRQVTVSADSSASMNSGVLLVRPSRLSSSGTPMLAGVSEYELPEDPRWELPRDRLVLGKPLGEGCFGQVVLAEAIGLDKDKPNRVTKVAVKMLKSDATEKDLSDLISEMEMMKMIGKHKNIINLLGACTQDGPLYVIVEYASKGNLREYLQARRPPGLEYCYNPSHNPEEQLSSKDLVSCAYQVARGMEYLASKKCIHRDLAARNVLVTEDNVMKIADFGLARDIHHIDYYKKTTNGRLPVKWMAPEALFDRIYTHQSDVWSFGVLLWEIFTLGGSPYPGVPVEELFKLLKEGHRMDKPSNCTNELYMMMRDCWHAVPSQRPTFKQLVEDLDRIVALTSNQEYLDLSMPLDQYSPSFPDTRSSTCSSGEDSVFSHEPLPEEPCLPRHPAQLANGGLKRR

Target: FGFR1 (Homo sapiens (Human), UniProt P11362)
Details: read-out: IC50(nM) FGFR1; recombinant human FGFR1, ATP at Km

Structure (SMILES): CCOC(=O)c1nc2cc(-n3ncc(C(=O)c4cc5ccccc5[nH]4)c3N)ccc2[nH]1 [Example 9, Ethyl 5-(5-Amino-4-(1H-indole-2-carbonyl)-1H-pyrazol-1-yl)-1H-benzo[d]imidazole-2-carboxylate]
- IC50: > 10000 nM
